Test results from US20140194321A1 (CELLOMICS, INC., priority 2013, published 2014).

Tested on: U937 cells
Assay: High-content imaging skin sensitizing prediction assay: U937 cells treated 24 h with a range of compound concentrations, CD54 intensity per cell and cell number dose response curves qualified, decision matrix applied
Settings: skin sensitivity prediction from decision matrix of FIG. 8 (CD54/cell vs cell number); Toxic* = at concentrations tested

Butanol was tested. Which Outcome did it give?
The Outcome was “Non-sensitizer”.
